In ChEMBL document CHEMBL1250448, “Inhibitor hijacking of Akt activation” (Nat Chem Biol, 2009):

Target: T1, Aurora kinase A (Homo sapiens) (UniProt O14965)
T1 sequence (whole entry): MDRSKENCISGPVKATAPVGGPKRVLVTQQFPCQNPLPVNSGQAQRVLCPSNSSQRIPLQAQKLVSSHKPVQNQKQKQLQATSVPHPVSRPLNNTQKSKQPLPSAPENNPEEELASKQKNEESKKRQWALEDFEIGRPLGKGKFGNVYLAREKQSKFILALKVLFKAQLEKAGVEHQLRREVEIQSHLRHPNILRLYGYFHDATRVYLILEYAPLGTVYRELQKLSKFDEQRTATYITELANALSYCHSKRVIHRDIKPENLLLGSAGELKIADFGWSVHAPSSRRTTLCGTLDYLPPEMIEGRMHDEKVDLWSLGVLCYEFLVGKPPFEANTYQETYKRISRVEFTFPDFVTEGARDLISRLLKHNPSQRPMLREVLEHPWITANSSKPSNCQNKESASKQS
Experiment: Inhibition of STK6 at 1 uM in presence of 10 uM ATP by Select Screen kinase assay relative to untreated control
How it was run: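 Commercial SelectScreen profiling panel of 220 purified kinases. Each kinase was tested at a single inhibitor concentration of 1 μM, and activity was expressed as percent inhibition.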

With `Cc1n[nH]c2ccc(-c3cncc(OC[C@@H](N)Cc4c[nH]c5ccccc45)c3)cc12` as the compound, how does the inhibition read?
The inhibition was 16%.
